# Most compounds without a hit are left out; they make up all but 0.46% or so of the library.
# GIV-Gai inh: inhibitors of GIV peptide binding to Galpha-i3, primary screen, biochemical, fluorescence polarization, FITC-GIV GBA peptide, rat Galphai3; Guanine nucleotide-binding protein G(i) subunit alpha-3 (Rattus norvegicus), P08753; 0.42% of 210,000 active; percent of control (FP), % (concentration not given with the values); 90 min; stronger effect = lower value; scaled: aluminum fluoride 0%, vehicle 100%;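 active = replicate mean at 85% of control or lower, very high polarization wells dropped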;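 note: wells of about 15 µL received 100 nL stock; the first replicate is given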
# HCMV NEC inh: cytomegalovirus nuclear egress complex inhibition; HTRF UL50-UL53 interaction, normalized percent inhibition; inhibition, % (no concentration beside the values); actives 0.15% (n = 190,000); AID 1918969; in the data active = inhibition above about 27%, passing the limit was not always enough
# GIV Gai FP conf: GIV-Galpha-i3 inhibition, FP confirmation. shares compounds with GIV-Gai inh. FITC-GIV peptide binding to Galphai3, fluorescence polarization; hits give low values. fluorescence polarization, mP at 100 µM. actives 38% (n = 580);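 active = inhibition score of 15 or more, meaning 100 minus mean polarization as percent of control over three replicates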;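 also: lower mP means peptide displaced from Galphai3 so more inhibition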
# GIV-Gai AS conf: GIV-Galpha-i3 inhibition, AlphaScreen confirmation. shares compounds with GIV-Gai inh. AlphaScreen Galphai3-GIV binding, purified proteins, 90 min; hits give low values. AlphaScreen counts at 100 µM. actives 39% (n = 580). AID 1259351;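 active = inhibition score at or above a set limit, where the score is 100 minus the three-replicate mean percent of control signal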
# Active calls of the source: *; x = no result.
[1] CCOC(=O)c1cccc(-c2ccc(/C=C3\C(=O)N(c4cccc(C(=O)O)c4)N=C3C)o2)c1
[2] COC(=O)c1ccc(N2N=C(C)/C(=C/c3ccc(-c4cccc(C(=O)O)c4)o3)C2=O)cc1
[3] CCCCn1c(N)c(N(CC)C(=O)c2ccccc2)c(=O)[nH]c1=O
[4] O=C(O)c1cccc(Nc2ncnc3scc(-c4ccccc4)c23)c1
[5] CC(C)Nc1ncnc2scc(-c3ccccc3)c12
[6] CC1CCCC(NC(=O)COC(=O)c2cccc(Br)c2)C1C (stereo not given)
[7] O=C(c1ccc(N2CCNCC2)c(NS(=O)(=O)c2ccccc2)c1)N1CCN(C2CCCCC2)CC1
[8] CCCOc1ccc(CNC(=O)C(NS(=O)(=O)c2cccs2)C(C)C)cc1 (stereo not given)

Amino acid sequences for entries named in this document (tags omitted).
Guanine nucleotide-binding protein G(i) subunit alpha-3 (Rattus norvegicus), P08753, UniProt P08753, whole entry, looked up: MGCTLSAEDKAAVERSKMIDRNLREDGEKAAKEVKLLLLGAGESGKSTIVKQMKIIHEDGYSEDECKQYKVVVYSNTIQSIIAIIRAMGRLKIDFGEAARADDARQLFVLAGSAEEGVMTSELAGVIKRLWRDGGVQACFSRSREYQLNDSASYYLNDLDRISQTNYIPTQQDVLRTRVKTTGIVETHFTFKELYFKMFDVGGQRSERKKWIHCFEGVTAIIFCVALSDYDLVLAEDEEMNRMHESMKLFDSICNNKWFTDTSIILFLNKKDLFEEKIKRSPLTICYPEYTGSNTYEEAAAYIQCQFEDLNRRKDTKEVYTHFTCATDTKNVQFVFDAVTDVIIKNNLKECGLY

Assay by compound | 1 | 2 | 3 | 4 | 5 | 6 | 7 | 8
GIV-Gai inh | 93 | 86 | x | 72* | 104 | x | 101 | 84*
HCMV NEC inh | -27 | -20 | -6 | -11 | -14 | -34 | -11 | x
GIV Gai FP conf | x | 56 | x | 82 | x | x | x | 82
GIV-Gai AS conf | x | 18724* | x | 29755 | x | x | x | 35946

[9] CC(C)C(NS(=O)(=O)c1cccs1)C(=O)NCc1cccnc1 (stereo not given)
[10] O=C(NCCc1ccccc1)C1=NS(=O)(=O)c2ccccc2N1
[11] COc1cccc(CNC(=O)c2c3c(nc4ccccc24)C(=O)N(C2CCCCC2)C3)c1
[12] COc1ccc(CNC(=O)c2c3c(nc4ccccc24)C(=O)N(C2CCCCC2)C3)cc1
[13] NC(=O)c1c(NC(=O)CSc2nnc3ccc4ccccc4n23)sc2c1CCCC2
[14] Cc1ccc(NC(=O)N2CCSc3ncccc32)cc1C
[15] C=CCNC(=O)c1c(-c2ccccc2Cl)noc1C
[16] Cc1ccsc1CN1CCCC1c1cc(C(C)C)on1 (stereo not given)

Assay by compound | 9 | 10 | 11 | 12 | 13 | 14 | 15 | 16
GIV-Gai inh | 105 | 99 | 89 | 100 | 101 | 105 | 101 | 102
HCMV NEC inh | 4 | -6 | x | x | -15 | -4 | -8 | x
GIV Gai FP conf | x | x | 81 | x | x | x | x | x
GIV-Gai AS conf | x | x | 34982 | x | x | x | x | x

[17] COc1ccc(Nc2c3c4c(cccc4n(C)c2=O)C(=O)c2ccccc2-3)cc1
[18] CCOc1ccc(Nc2c3c4c(cccc4[nH]c2=O)C(=O)c2ccccc2-3)cc1
[19] CC(=O)NC(C)C(=O)N1CCc2ccccc2C1 (stereo not given)
[20] Cc1occc1-c1nnc(SCC(=O)NCC(=O)Nc2ccc(F)cc2)n1Cc1ccccc1
[21] Nc1cccc2c1C(=O)N(CC(=O)O)C2=O
[22] Nc1cccc2c1C(=O)N(CC(=O)NC13CC4CC(CC(C4)C1)C3)C2=O
[23] O=C(Nc1ccc(F)cc1)c1cnc(N2CCCC2)nc1
[24] Cc1ccc2cc(C3CC(c4ccc(Br)cc4)=NN3C(=O)CCC(=O)O)c(Cl)nc2c1 (stereo not given)

Assay by compound | 17 | 18 | 19 | 20 | 21 | 22 | 23 | 24
GIV-Gai inh | 103 | 32* | x | x | 81* | x | 107 | 107
HCMV NEC inh | x | -30 | -31 | -34 | -41 | -17 | -24 | 2
GIV Gai FP conf | x | 28* | x | x | 72 | x | x | x
GIV-Gai AS conf | x | 39358 | x | x | 47777 | x | x | x

[25] O=C(O)CNC(=O)Cc1ccccc1
[26] Cc1ccc(C(=O)NC2(O)C(=O)c3ccccc3C2=O)cc1C
[27] O=C(Cc1ccccc1)NC1(O)C(=O)c2ccccc2C1=O
[28] O=C(NCCc1ccccc1)c1ccccn1
[29] O=C(NO)c1ccc(C(F)(F)F)cc1
[30] O=C(NC1(O)C(=O)c2ccccc2C1=O)c1ccccn1
[31] Cc1ccc(C(=O)O)cc1NC1(c2ccccc2)C(=O)c2ccccc2C1=O
[32] O=C(NC1(O)C(=O)c2ccccc2C1=O)c1ccc(C(F)(F)F)cc1

Assay by compound | 25 | 26 | 27 | 28 | 29 | 30 | 31 | 32
GIV-Gai inh | 104 | 57* | 61* | x | x | 74* | 98 | 56*
HCMV NEC inh | -15 | 59* | 50* | -34 | -10 | 36 | x | 58*
GIV Gai FP conf | x | 45* | 52* | x | x | 68 | x | 61
GIV-Gai AS conf | x | 46487 | 45267 | x | x | 36588 | x | 32539

[33] COC(=O)CSc1nc2c3ccccc3ncn2n1
[34] COc1ccc(Cn2c(SCc3ccccc3C)nc3ccncc32)cc1
[35] CC(C)(C)c1cc(NC(=O)CSc2nc3ccccc3c(=O)n2-c2ccc(Cl)cc2)on1
[36] CCc1ccc(S(=O)(=O)NCCn2c(-c3ccncc3)nc3cccnc32)cc1
[37] COc1ccc(C(=O)NCc2ccoc2C(=O)O)cc1
[38] COc1ccccc1OCc1ccoc1C(=O)O
[39] CS/C(=N\S(=O)(=O)c1ccccc1)Nc1c(C)nn(C)c1C
[40] O=C(c1cccc(S(=O)(=O)N2CCOCC2)c1)n1nnc2ccccc21

Assay by compound | 33 | 34 | 35 | 36 | 37 | 38 | 39 | 40
GIV-Gai inh | x | 102 | x | 106 | x | 82* | 106 | x
HCMV NEC inh | -24 | -14 | -7 | -18 | -13 | -5 | -1 | -3
GIV Gai FP conf | x | x | x | x | x | 69 | x | x
GIV-Gai AS conf | x | x | x | x | x | 18278* | x | x

[41] O=c1c(=NNc2nn[nH]n2)c(=O)c2ccccc12
[42] O=c1c(=NNc2ccccc2)c(=O)c2ccccc12
[43] Cc1cc(Cl)nc(Cl)c1C(=O)NC(=O)NC(C)(C)C
[44] O=C(Nc1sc2c(c1C(=O)NCC1CCCO1)CCCC2)c1cc(=O)c2ccccc2o1 (stereo not given)
[45] COC(=O)c1c(NC(=O)c2cc(=O)c3ccccc3o2)sc2c1CCCC2
[46] CCOC(=O)C1=C(N)OC2=C(C(=O)CC(c3ccccc3)C2)C1c1ccc(Cl)c([N+](=O)[O-])c1 (stereo not given)
[47] CCc1ccc(-c2cc(C(=O)NCc3ccncc3)c3ccccc3n2)cc1
[48] Cc1ccc(C(=O)c2cc(F)c(N3CCOCC3)cc2Cl)cc1C

Assay by compound | 41 | 42 | 43 | 44 | 45 | 46 | 47 | 48
GIV-Gai inh | 40* | 111 | x | 101 | 125 | 106 | 104 | 105
HCMV NEC inh | -12 | -76 | -10 | -16 | -21 | -6 | -24 | x
GIV Gai FP conf | 39* | x | x | x | 59 | x | x | x
GIV-Gai AS conf | 17853* | x | x | x | 43666 | x | x | x

[49] Cc1cc(N2CCOCC2)c(F)cc1C(=O)c1ccccc1
[50] COC(=O)C1C(=O)CC(=O)CC1c1ccc(OC)cc1 (stereo not given)
[51] CCOC(=O)c1ccc(NS(=O)(=O)c2c(C(=O)N3CCCC3)c(C)n(C)c2C)cc1
[52] O=C(O)CCC(=O)NC1CCCCNC1=O (stereo not given)
[53] CC(=O)NC1C(Oc2ccccc2)OC2COC(c3ccccc3)OC2C1O (stereo not given)
[54] CN(C)CCNC(=O)c1ccc(-n2c(-c3ccccc3)nc3cccnc32)cc1
[55] O=C(NCCn1c(-c2ccccc2)nc2cccnc21)c1ccc(Cl)cc1
[56] CC1=CC(=Nc2c(C)n(C)n(-c3ccccc3)c2=O)c2ccccc2C1=O

Assay by compound | 49 | 50 | 51 | 52 | 53 | 54 | 55 | 56
GIV-Gai inh | 92 | 107 | 103 | 105 | x | 83* | 110 | 107
HCMV NEC inh | -23 | -1 | -19 | -32 | -1 | -15 | -17 | -23
GIV Gai FP conf | 68 | x | x | x | x | 60 | x | x
GIV-Gai AS conf | 43945 | x | x | x | x | 33901 | x | x

[57] Cc1c(N=c2c(=O)c3ccccc3c2=O)c(=O)n(-c2ccccc2)n1C
[58] Cc1cc(C)cc(N=C2NC(=O)/C(=C/c3ccccc3[N+](=O)[O-])S2)c1
[59] COC(=O)c1ccc2nsnc2c1
[60] CCOC(=O)c1ccc2nsnc2c1
[61] NC(=O)C[n+]1ccc(/C=N/O)cc1
[62] NC(=O)C[n+]1cccc2ccccc21
[63] CSc1ccccc1C(=O)OCC(=O)Nc1ccc2[nH]c(=O)[nH]c2c1
[64] CCOc1ccc2c(c1)C(C)CC(C)(C)N2 (stereo not given)

Assay by compound | 57 | 58 | 59 | 60 | 61 | 62 | 63 | 64
GIV-Gai inh | 62* | 102 | 86 | 101 | 108 | 80* | x | 109
HCMV NEC inh | x | -18 | x | -69 | -80 | x | -15 | -5
GIV Gai FP conf | 47* | x | 65 | x | x | 48* | x | x
GIV-Gai AS conf | 26896 | x | 37884 | x | x | 5016* | x | x

# Arranged by length of the SMILES (high to low): 4 of the compounds above
[58] Cc1cc(C)cc(N=C2NC(=O)/C(=C/c3ccccc3[N+](=O)[O-])S2)c1
[64] CCOc1ccc2c(c1)C(C)CC(C)(C)N2 (stereo not given)
[62] NC(=O)C[n+]1cccc2ccccc21
[59] COC(=O)c1ccc2nsnc2c1

Assay by compound | 58 | 64 | 62 | 59
GIV-Gai inh | 102 | 109 | 80* | 86
HCMV NEC inh | -18 | -5 | x | x
GIV Gai FP conf | x | x | 48* | 65
GIV-Gai AS conf | x | x | 5016* | 37884

# Later entries
[65] CC(=O)Nc1ccc(C2=N/C(=C/c3cc(Br)cs3)C(=O)O2)cc1
[66] O=C1OC(c2ccc(Cl)c([N+](=O)[O-])c2)=N/C1=C\c1cc(Br)cs1
[67] COC(=O)C1CCN(c2ncnc3scc(-c4ccccc4)c23)CC1
[68] O=C(Nc1ccc(F)cc1)c1nnc(C(=O)N2CCC(C(=O)NCc3cccnc3)CC2)s1

Assay by compound | 65 | 66 | 67 | 68
GIV-Gai inh | 93 | 110 | x | 104
HCMV NEC inh | -13 | x | 8 | -10
GIV Gai FP conf | 68 | x | x | x
GIV-Gai AS conf | 42375 | x | x | x

# High-throughput results as filed in PubChem.
